# Earlier results, collected in patent US20120058541A1, “ENGINEERING RESISTANCE TO ALIPHATIC ALCOHOLS” (BUTAMAX(TM) ADVANCED BIOFUELS LLC, priority 2009, published 2012).
# Tested on: producing organisms
# Settings: generally reported; fermentation of producing organisms; cited from earlier work
substance,measurement,value
butanol,butanol concentration resulting in profound cellular degradation,12 to 13 g/L
